Assay outcomes: PubChem, several laboratories
SMARCA2 activ: SMARCA2 (BRM) function activators, primary screen, cell-based, luminescence, high throughput | MG213 cells, MMTV-luciferase reporter, dexamethasone, overnight | activation, % at 9.1 µM | 370,000 tested, 1% active; in the data active = activation above about 7.8%
ERp5 inh: inhibitors of ERp5-driven insulin aggregation, primary screen, biochemical, turbidity, absorbance 650 nm, single point; Protein disulfide-isomerase A6 (Homo sapiens), Q15084; 90 min; inhibition, % at 9.99 µM; 350,000 tested, 0.05% active;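 active = mean replicate inhibition above about 25%, with every replicate also reaching it, limit read from the data, passing the limit was not always enough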
Yeast UUG start: modulators of start codon recognition fidelity in yeast; S. cerevisiae UUG-firefly luciferase reporter, luminescence/redox ratio; activity score, % at 18.7 µM; hit rate 0.13% among 350,000; AID 602363;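 active = replicate mean at a twofold rise or more, about +100% in these data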;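 note: firefly luciferase made from a UUG start codon reports start codon fidelity; reporter light over untreated wells divided by growth signal over untreated wells; some hits fall short of that in this replicate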
PDI inh: inhibitors of human PDI, primary screen, biochemical, turbidity, single point, plate reader. Protein disulfide-isomerase (Homo sapiens), P07237. PDI insulin aggregation turbidity, A650, 90 min. inhibition, % at 10 µM. 350,000 tested, 0.052% active. AID 588391, 2011;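 active = mean inhibition across replicates of 30% or more, whatever share of single replicates reach that level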
NR1D1 modulator: modulators of Rev-erb alpha DNA binding, primary screen, biochemical, FITC-DNA, fluorescence polarization, uHTS; Nuclear receptor subfamily 1 group D member 1 (Homo sapiens), P20393; Rev-erbα–FITC-DNA binding, 90 min; activity, % at 10 µM; 370,000 tested, 0.79% active; AID 1259318, 2017;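 active = activity above about 14%, limit read from the data; passing the limit was not always enough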
INS-1E GSIS act: GLuc luminescence reporter in INS-1E cells, primary screen for activators of glucose-dependent secretion of insulin. 370,000 tested, 0.61% active. activation, % at 16.6 µM. INS-1E GLuc reporter insulin secretion, 2-3 h. AID 743287, 2014;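 active = lowest replicate activation of at least 40%, so every replicate reaches that level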
NR1D1 mod conf: modulators of Rev-erb alpha DNA binding, confirmation, biochemical, FITC-DNA, fluorescence polarization, single point; shares compounds with NR1D1 modulator; 90 min; activation, % at 25 µM; 3,000 tested, 61% active; AID 1259319, 2017;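 active = activation at or above a set limit, or at least 3 SD above the negative control mean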
RORg counter: modulation of RORgamma DNA binding, dose response, counter-screen for Rev-erb alpha modulator project, biochemical, fluorescence polarization, FITC-DNA; shares compounds with NR1D1 modulator; purified RORgamma protein-FITC-DNA binding; 910 tested, 8% active; AID 1259320, 2017; IC50, µM;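 active = Compounds whose fitted half-maximal concentration for disrupting protein-DNA binding is below 10 micromolar; the record names Rev-erb in its text, so the target is in doubt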
Large screens that a line does not name were inactive (follow-up assays come after a bar, where they were run). The list is not random: actives were taken first. Their share in the collection is about 2.1%.

COC(=O)c1sc2nc(SCc3ccccc3C)n(N)c(=O)c2c1C	NR1D1 modulator 107 (no result: Yeast UUG start, INS-1E GSIS act) | NR1D1 mod conf inactive
COC(=O)c1sc2nc(SCc3cccc(Cl)c3)n(N)c(=O)c2c1C	none (no result: Yeast UUG start)
CCN(CC(=O)NCc1ccc(Cl)cc1)C(=O)c1ccc2cc(OC)ccc2c1	NR1D1 modulator 105 | NR1D1 mod conf 102 | RORg counter inactive
CCN1C(=O)/C(=C/C=C2/Sc3ccccc3N2CCO)SC1=S	none
CCN1C(=O)/C(=C/C=C2/SCCN2C)SC1=S	NR1D1 modulator 78 (no result: ERp5 inh, INS-1E GSIS act) | NR1D1 mod conf 148 | RORg counter inactive
CN1CCS/C1=C\C=C1/SC(=S)N(CC(=O)O)C1=O	NR1D1 modulator 293 (no result: Yeast UUG start) | NR1D1 mod conf 173 | RORg counter inactive
C[C@@H]1CN([C@@H](C)CO)C(=O)c2cc(/C=C/c3ccccc3)cnc2O[C@H]1CN(C)C(=O)Cc1ccccn1	none (no result: SMARCA2 activ, PDI inh, NR1D1 modulator)
O=C(Cc1ccccc1)N1C[C@@H]2[C@H](c3ccccc31)[C@H](CO)N2C(=O)Cc1ccccc1	none (no result: SMARCA2 activ, PDI inh, NR1D1 modulator)
CCCCNC(=O)c1nn2c(C(F)(F)F)cc(-c3ccc(OC)cc3)nc2c1Br	NR1D1 modulator 48 | NR1D1 mod conf inactive
CCCCNC(=O)c1cc2nc(-c3ccc(OC)cc3)cc(C(F)(F)F)n2n1	none
CCCNC(=O)c1nn2c(C(F)(F)F)cc(-c3ccccc3)nc2c1Br	NR1D1 modulator 28 (no result: INS-1E GSIS act) | NR1D1 mod conf 21
CC(C)(C)NC(=O)c1nn2c(C(F)(F)F)cc(-c3ccccc3)nc2c1Br	none
C[C@@H]1CN([C@H](C)CO)C(=O)Cc2cc(NS(=O)(=O)c3ccccc3)ccc2O[C@@H]1CN(C)Cc1ccc(C(=O)O)cc1	none (no result: SMARCA2 activ, Yeast UUG start, PDI inh, NR1D1 modulator)
COc1ccc(S(=O)(=O)Nc2ccc3c(c2)CC(=O)N([C@H](C)CO)C[C@@H](C)[C@@H](CN(C)Cc2ccncc2)O3)cc1	none (no result: SMARCA2 activ, PDI inh, NR1D1 modulator)
CN(C)c1ccc2c(c1)[C@H]1C[C@H](CC(=O)NCc3ccccc3F)O[C@H](CO)[C@H]1O2	none (no result: SMARCA2 activ, ERp5 inh, Yeast UUG start, PDI inh, NR1D1 modulator)
COC(=O)c1sc(C(F)(F)F)c(-c2ccccc2)c1S(=O)(=O)N1CCCC1	NR1D1 modulator 24 (no result: INS-1E GSIS act) | NR1D1 mod conf 27
CC(=O)c1c(N2CCOCC2)nc2ccc(Cl)cc2c1-c1ccccc1	NR1D1 modulator 31 (no result: Yeast UUG start) | NR1D1 mod conf 28
Cc1nc2ccc(Cl)cc2c(-c2ccccc2)c1C(=O)N(C)C	none
C[C@H]1CN([C@@H](C)CO)C(=O)c2cc(NS(=O)(=O)c3ccccc3)ccc2O[C@H]1CN(C)C	none (no result: SMARCA2 activ, Yeast UUG start, PDI inh, NR1D1 modulator)
O=C(Nc1ccccc1F)N1CC(=O)N2[C@@H](CO)[C@H](c3ccc(C#Cc4ccccc4)cc3)[C@@H]2C1	none (no result: SMARCA2 activ, Yeast UUG start, PDI inh, NR1D1 modulator)
O=C(Nc1nc(-c2cc3ccccc3oc2=O)cs1)c1ccc(Br)o1	NR1D1 modulator 54 (no result: ERp5 inh, Yeast UUG start, INS-1E GSIS act) | NR1D1 mod conf 31
COc1ccc(NC(=O)N(C)C[C@H]2Oc3ncc(-c4ccc(C#N)cc4)cc3C(=O)N([C@@H](C)CO)C[C@H]2C)cc1	none (no result: SMARCA2 activ, PDI inh, NR1D1 modulator)
COc1ccccc1-c1nc(SCC(=O)Nc2cc(C)on2)c2c(=O)n(C)c(=O)n(C)c2n1	NR1D1 modulator 72 | NR1D1 mod conf 60 | RORg counter inactive
CCc1cc2ccc(OC)cc2nc1SCC(=O)Nc1cc(C)on1	NR1D1 modulator 75, INS-1E GSIS act 48 (no result: ERp5 inh) | NR1D1 mod conf 57 | RORg counter inactive
CCc1cc2cc(C)c(C)cc2nc1SCC(=O)Nc1cc(C)on1	NR1D1 modulator 36 (no result: Yeast UUG start) | NR1D1 mod conf inactive
CCc1cc2c(C)ccc(C)c2nc1SCC(=O)Nc1cc(C)on1	NR1D1 modulator 24 | NR1D1 mod conf inactive
CC(C)NC(=O)N(C)C[C@H]1Oc2c(NS(=O)(=O)c3cn(C)cn3)cccc2C(=O)N([C@H](C)CO)C[C@H]1C	none (no result: SMARCA2 activ, PDI inh, NR1D1 modulator)
COc1ccc(C(=O)Nc2ccc3oc(-c4cccc(F)c4)nc3c2)cc1OC	none
O=C(NCc1ccc(-c2nc3ccccc3s2)cc1)c1cc2ccccc2o1	none (no result: ERp5 inh, Yeast UUG start)
COc1cc(C(=O)NCc2ccc(-c3nc4ccccc4s3)cc2)cc(OC)c1OC	NR1D1 modulator 38 (no result: Yeast UUG start, INS-1E GSIS act) | NR1D1 mod conf 32 | RORg counter inactive
COc1cc(C(=O)NCc2ccc(-c3nc4ccccc4o3)cc2)cc(OC)c1OC	NR1D1 modulator 26 (no result: ERp5 inh, INS-1E GSIS act) | NR1D1 mod conf inactive
O=C(NCc1ccc(-c2nc3ccccc3s2)cc1)c1ccc(Br)o1	NR1D1 modulator 21 (no result: Yeast UUG start, INS-1E GSIS act) | NR1D1 mod conf inactive
COc1ccccc1C(=O)Nc1ccc2oc(-c3ccc(F)cc3)nc2c1	NR1D1 modulator 36 (no result: ERp5 inh, INS-1E GSIS act) | NR1D1 mod conf 33 | RORg counter inactive
CCC(=O)Nc1ccc2c(c1)C(=O)N(C)C[C@H](OC)[C@H](C)CN(C(=O)c1ccc(F)cc1)[C@@H](C)CO2	none (no result: SMARCA2 activ, PDI inh, NR1D1 modulator)
COc1cccc(C(=O)N/N=c2/oc3ccccc3cc2C(N)=O)c1	NR1D1 modulator 14 (no result: Yeast UUG start) | NR1D1 mod conf inactive
COc1ccc2cc(C(N)=O)/c(=N\NC(=O)c3ccccc3)oc2c1	none
Cc1ccc(Cc2c(-c3ccc(C#N)cc3)nc3ccc(Br)cn23)cc1	NR1D1 modulator 29 | NR1D1 mod conf inactive
N#Cc1ccc(-c2nc3ccc(Br)cn3c2Cc2cccc(Cl)c2)cc1	none (no result: PDI inh)
N#Cc1ccc(-c2nc3ccc(Br)cn3c2Cc2ccccc2)cc1	NR1D1 modulator 22 | NR1D1 mod conf 14
COc1ccc(S(=O)(=O)N(C)C[C@H]2OCCCC[C@@H](C)Oc3ccc(NS(=O)(=O)c4ccccc4)cc3C(=O)N([C@H](C)CO)C[C@@H]2C)cc1	none (no result: SMARCA2 activ, PDI inh, NR1D1 modulator)
O=C(C[C@@H]1CC[C@H]2[C@@H](COC[C@H](O)CN2C(=O)c2ccc(F)cc2)O1)Nc1ccc(-c2ccccc2)cc1	none (no result: SMARCA2 activ, Yeast UUG start, PDI inh, NR1D1 modulator)
Cc1csc2ncc(C(=O)Nc3ccc4c(c3)OCCO4)c(=O)n12	NR1D1 modulator 28 (no result: INS-1E GSIS act) | NR1D1 mod conf 14
CCCCN1C(=O)/C(=C/C=C2\Oc3ccccc3N2CC)SC1=S	NR1D1 modulator 15 | NR1D1 mod conf 62 | RORg counter inactive
CCCN1C(=O)/C(=C\C=C2/Sc3ccccc3N2CCO)SC1=S	none (no result: Yeast UUG start)
C=CCN1C(=O)/C(=C\C=C2\N(C)c3ccccc3C2(C)C)SC1=S	NR1D1 modulator 25 (no result: Yeast UUG start) | NR1D1 mod conf 39 | RORg counter inactive
CCN1C(=O)/C(=C\N2CCCc3ccccc32)SC1=S	none (no result: ERp5 inh, INS-1E GSIS act)
CN1/C(=C\C=C2/SC(=S)N(CC(=O)O)C2=O)C(C)(C)c2ccccc21	none (no result: Yeast UUG start)
